From patent publication US20080090881A1, “TREATMENT OF DIABETES WITH THIAZOLIDINEDIONE AND METFORMIN” (SmithKline Beecham plc, priority 1997, published 2008)

Assays:
[1] = Steady-state pharmacokinetics of Compound (I) and metformin alone and in combination in male volunteers (plasma, day 4); details: Combn = Compound (I) + M coadministration, oral, Compound (I) 2 mg Q12h + M 500 mg Q12h for 4 days
[2] = Safety and tolerability of oral Compound (I) and metformin alone or in combination in male volunteers; details: Compound (I) 2 mg Q12h, M 500 mg Q12h, or the combination, each for 4 days

Row | Compound | Tmax [1] | T½ [1] | Episodes of hypoglycaemia [2] | Safety and tolerability of oral doses [2]
1 | CN(CCOc1ccc(CC2SC(=O)NC2=O)cc1)c1ccccn1 (stereo not drawn) [Compound (I), 5-[4-[2-(N-methyl-N-(2-pyridyl)amino)ethoxy]benzyl]thiazolidine-2,4-dione] | 3.5 h | 3.41 h | no episodes of hypoglycaemia | 
2 | CN(C)C(=N)N=C(N)N [M, 1,1-Dimethylbiguanidine, reference compound] | 3.5 h |  | no episodes of hypoglycaemia | safe and well tolerated
